Measurements reported in US10072293B2, “Systems, models and methods for identifying and evaluating skin-active agents effective for treating dandruff/seborrheic dermatitis” (The Procter and Gamble Company, priority 2011, dated 2018).
Values joined by “and” are separate entries in the source; they are usually repeats but may differ in a detail not shown here. Identical values can stand only once.

System: reconstituted human epidermis (RHE)
Assay: Connectivity map linkage scores, inflammatory skin disorder signature (top 70 up / 70 down), RHE instances
Format: cell-based
Parameters: scale not given here
Details: 20 ng/ml
From the text: Gene expression data from five inflammatory skin disorders (acne, atopic dermatitis, dandruff, eczema and psoriasis) were collected from a clinical genomics study and published studies. The raw expression data were used to produce a rank-ordered list of most differentially regulated genes associated with inflammatory skin disorders.
The derived gene signature was used to query a provided database comprising gene expression data from clinical genomics studies of a widely different inflammatory skin disorders, published in vitro genomics studies of disparate inflammatory skin disorders, and genomics data from an internal in vitro model of dandruff inflammatory pathology (human organotypic, MatTek, cultures). […] Thus, the internal model was validated as being useful for study of inflammatory cascades and other gene expression alterations associated with inflammatory skin disorders.

B1: IL20: interleukin (protein, UniProt Q9NYY1 25-176, looked up)
Interleukin-20: LKTLNLGSCVIATNLQEIRNGFSEIRGSVQAKDGNIDIRILRRTESLQDTKPANRCCLLRHLLRLYLDRVFKNYQTPDHYTLRKISSLANSFLTIKKDLRLCHAHMTCHCGEEAMKKYSQILSHFEKLEPQAAVVKALGELDILLQWMEETE
  Score: 0.731 and 0.702 and 0.668
  Up Score: 0.424 and 0.333 and 0.436
